According to US6803486B2, “Selective neuronal nitric oxide synthase inhibitors” (Northwestern University, priority 2001, dated 2004):
Read-outs that look alike come from different tables or passages of the source.

Columns and labels:
recombinant murine iNOS = target: T1, recombinant murine iNOS (Mus musculus, UniProt P29477); assay: NOS inhibition, hemoglobin capture assay, iNOS; assay type: biochemical; details: at least duplicate
T1 construct: made in house; host or cells: E. coli

recombinant bovine eNOS = recombinant bovine eNOS (Bos taurus, UniProt P29473); details: for Ki: at least duplicate; for decrease in potency for eNOS: 7-9 compared with descarboxamide analogues 4-6
recombinant rat nNOS = target: T2, recombinant rat nNOS (Rattus norvegicus, UniProt P29476); assay: NOS inhibition, hemoglobin capture assay, nNOS; assay type: biochemical; details: Table 2; for Ki: Ki calculated from the measured IC50 values, at least duplicate; for Selectivity ENOS/nNOS: ratio of Ki (eNOS) to Ki (nNOS); for Selectivity iNOS/nNOS: ratio of Ki (iNOS) to Ki (nNOS)
T2 construct: made in house; host or cells: E. coli

[1] = Table 2, Ki calculated from the measured IC50 values
[2] = read-out: Ki eNOS, Table 2, Ki calculated from the measured IC50 values
[3] = read-out: Ki ENOS, Table 1, SD ±8-12%, 10 μM L-arginine

`N=C(NCCC[C@H](N)CNCc1cccc(N)c1)N[N+](=O)[O-]` [Compound 18, N-(4S)-[4-Amino-5-(3-aminobenzylamino)pentyl]-N′-nitroguanidine] gave a Ki (recombinant murine iNOS; [1]) of 572 µM and a Ki (recombinant bovine eNOS; [2]) of 185 µM.
With `N=C(NCCC[C@H](N)CNc1cccc(CCN)c1)N[N+](=O)[O-]` [Compound 27, N-(4S)-{4-Amino-5-[3-(2-aminoethyl)phenylamino]pentyl}-N′-nitroguanidine] the Ki (recombinant rat nNOS) was 2.21 µM, the “Selectivity ENOS/nNOS” value (recombinant rat nNOS) was 45.2 and the “Selectivity iNOS/nNOS” value (recombinant rat nNOS) was 118. It also gave a Ki (recombinant murine iNOS; [1]) of 260 µM and a Ki (recombinant bovine eNOS; [2]) of 100 µM.
`N=C(NCCC[C@H](N)CNCCCCN)N[N+](=O)[O-]` [Compound 9, (4S)-N-(4-Amino-5-[aminobutyl]aminopentyl)-N′-nitroguanidine] was tested, and the “decrease in potency for eNOS” value (recombinant bovine eNOS) was ~6 fold and the Ki (recombinant bovine eNOS; [3]) was 411 µM.
With `N=C(NCCC[C@H](N)CNCc1ccc(N)cc1)N[N+](=O)[O-]` [Compound 19, N-(4S)-[4-Amino-5-(4-aminobenzylamino)pentyl]-N′-nitroguanidine] the Ki (recombinant rat nNOS) was 1.6 µM, the “Selectivity ENOS/nNOS” value (recombinant rat nNOS) was 189 and the “Selectivity iNOS/nNOS” value (recombinant rat nNOS) was 204. The Ki (recombinant murine iNOS; [1]) was 326 µM and the Ki (recombinant bovine eNOS; [2]) was 303 µM.
Work on `N=C(NCCC[C@H](N)CNCc1ccccn1)N[N+](=O)[O-]` [Compound 29, N-(4S)-{4-Amino-5-[(pyridin-2-yl)methyl]aminopentyl}-N′-nitroguanidine] yielded a Ki (recombinant murine iNOS; [1]) of 154 µM and a Ki (recombinant bovine eNOS; [2]) of 443 µM.
With `N=C(NCCC[C@H](N)CNCc1ccccc1N)N[N+](=O)[O-]` [Compound 17, N-(4S)-[4-Amino-5-(2-aminobenzylamino)pentyl]-N′-nitroguanidine] the Ki (recombinant rat nNOS) was 20.3 µM, the “Selectivity ENOS/nNOS” value (recombinant rat nNOS) was 4.24 and the “Selectivity iNOS/nNOS” value (recombinant rat nNOS) was 4.25. For the same compound, the Ki (recombinant murine iNOS; [1]) was 86.3 µM and the Ki (recombinant bovine eNOS; [2]) was 86.1 µM.
Compound `N=C(NCCC[C@H](N)CNCCc1cccnc1)N[N+](=O)[O-]` [Compound 33, N-(4S)-{4-Amino-5-[(2-pyridin-3-yl)ethyl]aminopentyl}-N′-nitroguanidine] has a Ki (recombinant murine iNOS; [1]) of 178 µM.
`N=C(NCCC[C@H](N)CNCCCN)N[N+](=O)[O-]` [Compound 8, (4S)-N-(4-Amino-5-[aminopropyl]aminopentyl)-N′-nitroguanidine] was tested, and the Ki (recombinant murine iNOS; Table 1, SD ±8-12%, 10 μM L-arginine) was 73 µM, the “decrease in potency for eNOS” value (recombinant bovine eNOS) was 2.5 fold and the Ki (recombinant bovine eNOS; [3]) was 524 µM.
`N=C(NCCC[C@H](N)CNc1ccc(CCN)cc1)N[N+](=O)[O-]` [Compound 28, N-(4S)-{4-Amino-5-[4-(2-aminoethyl)phenylamino]pentyl}-N′-nitroguanidine] gave a Ki (recombinant murine iNOS; [1]) of 360 µM and a Ki (recombinant bovine eNOS; [2]) of 414 µM.
`N=C(NCCC[C@H](N)CNCc1ccncc1)N[N+](=O)[O-]` [Compound 31, N-(4S)-{4-Amino-5-[(pyridin-4-yl)methyl]aminopentyl}-N′-nitroguanidine] gave a Ki (recombinant bovine eNOS; [2]) of 589 µM.
`N=C(NCCC[C@H](N)CNCCc1ccncc1)N[N+](=O)[O-]` [Compound 34, N-(4S)-{4-Amino-5-[(2-pyridin-4-yl)ethylamino]pentyl}-N′-nitroguanidine] gave a Ki (recombinant murine iNOS; [1]) of 395 µM.
